Results on 1 compound are retold here after patent US20240382481A1 (priority 2021, published 2024).

Sequences of proteins named here, by UniProt entry; tags and fusion partners are left off.
UniProt P78362, whole entry, species assumed: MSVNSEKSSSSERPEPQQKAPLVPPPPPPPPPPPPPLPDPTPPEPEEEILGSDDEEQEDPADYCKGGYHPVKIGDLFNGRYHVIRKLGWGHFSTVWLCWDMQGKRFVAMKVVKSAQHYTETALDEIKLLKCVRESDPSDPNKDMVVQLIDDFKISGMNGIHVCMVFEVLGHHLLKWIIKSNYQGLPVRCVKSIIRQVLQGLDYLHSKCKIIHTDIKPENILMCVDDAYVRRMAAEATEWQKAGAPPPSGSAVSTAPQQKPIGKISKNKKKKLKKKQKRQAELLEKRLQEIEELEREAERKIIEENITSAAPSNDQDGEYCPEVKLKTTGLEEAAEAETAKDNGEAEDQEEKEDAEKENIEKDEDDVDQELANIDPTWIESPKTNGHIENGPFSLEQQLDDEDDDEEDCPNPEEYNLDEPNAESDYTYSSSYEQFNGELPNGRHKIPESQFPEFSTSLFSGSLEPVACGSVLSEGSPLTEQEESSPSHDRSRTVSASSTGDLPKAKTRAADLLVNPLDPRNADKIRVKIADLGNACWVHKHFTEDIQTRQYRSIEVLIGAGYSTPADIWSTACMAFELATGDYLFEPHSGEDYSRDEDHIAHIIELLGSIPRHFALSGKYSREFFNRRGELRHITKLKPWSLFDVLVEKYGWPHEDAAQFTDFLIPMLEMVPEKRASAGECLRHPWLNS
UniProt Q96SB4, whole entry, species assumed: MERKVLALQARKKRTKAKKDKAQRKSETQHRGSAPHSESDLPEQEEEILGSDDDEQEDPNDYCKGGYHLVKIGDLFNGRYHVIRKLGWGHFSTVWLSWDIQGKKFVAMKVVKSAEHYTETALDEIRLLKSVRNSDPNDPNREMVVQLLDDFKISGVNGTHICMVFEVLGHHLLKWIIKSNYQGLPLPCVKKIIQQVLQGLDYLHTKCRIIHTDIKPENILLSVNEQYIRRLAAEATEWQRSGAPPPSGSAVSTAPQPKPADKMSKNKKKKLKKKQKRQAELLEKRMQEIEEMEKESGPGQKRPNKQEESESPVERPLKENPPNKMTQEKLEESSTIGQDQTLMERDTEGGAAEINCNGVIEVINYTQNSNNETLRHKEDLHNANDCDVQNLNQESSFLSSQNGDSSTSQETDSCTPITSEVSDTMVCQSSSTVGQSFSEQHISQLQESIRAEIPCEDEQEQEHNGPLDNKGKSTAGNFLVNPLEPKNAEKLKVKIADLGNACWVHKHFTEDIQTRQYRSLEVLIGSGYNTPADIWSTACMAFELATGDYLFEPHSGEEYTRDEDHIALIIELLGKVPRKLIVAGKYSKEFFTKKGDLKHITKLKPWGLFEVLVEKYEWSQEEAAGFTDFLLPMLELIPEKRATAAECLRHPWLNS

Each structure is given as a SMILES string.

The target of one test is SRPK2 (Homo sapiens, UniProt P78362). Kind of test: biochemical.
The target of a further test is SRPK1 (Homo sapiens, UniProt Q96SB4). The test is described as follows: biochemical.

The IC50 is the concentration that inhibits the measured activity by half. Regarding `CN(c1ncccc1CNc1ccnc(-c2nc3c(F)c(Cl)ccc3[nH]2)n1)S(C)(=O)=O` [Compound B10], the 50% inhibitory concentration (IC50) against SRPK2 is 50 to 500 nM; at SRPK1, < 50 nM.
